SMILES strings stand for the structures.

The chains behind the UniProt entries cited, without tags or fusion partners. Where a name states a change or a piece, a line headed by the entry shows the natural chain unless it says otherwise.
UniProt P41145: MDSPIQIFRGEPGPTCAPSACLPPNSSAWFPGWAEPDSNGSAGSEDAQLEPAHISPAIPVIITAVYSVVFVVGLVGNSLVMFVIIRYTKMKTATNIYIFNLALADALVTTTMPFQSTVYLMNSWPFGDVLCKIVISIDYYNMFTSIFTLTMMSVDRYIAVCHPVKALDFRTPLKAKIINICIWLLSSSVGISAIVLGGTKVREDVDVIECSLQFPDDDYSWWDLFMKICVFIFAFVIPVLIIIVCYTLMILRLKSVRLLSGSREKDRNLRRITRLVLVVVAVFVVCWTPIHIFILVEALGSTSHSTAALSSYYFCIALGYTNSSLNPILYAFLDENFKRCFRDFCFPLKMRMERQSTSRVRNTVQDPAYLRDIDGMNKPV
UniProt P35372, whole entry, looked up: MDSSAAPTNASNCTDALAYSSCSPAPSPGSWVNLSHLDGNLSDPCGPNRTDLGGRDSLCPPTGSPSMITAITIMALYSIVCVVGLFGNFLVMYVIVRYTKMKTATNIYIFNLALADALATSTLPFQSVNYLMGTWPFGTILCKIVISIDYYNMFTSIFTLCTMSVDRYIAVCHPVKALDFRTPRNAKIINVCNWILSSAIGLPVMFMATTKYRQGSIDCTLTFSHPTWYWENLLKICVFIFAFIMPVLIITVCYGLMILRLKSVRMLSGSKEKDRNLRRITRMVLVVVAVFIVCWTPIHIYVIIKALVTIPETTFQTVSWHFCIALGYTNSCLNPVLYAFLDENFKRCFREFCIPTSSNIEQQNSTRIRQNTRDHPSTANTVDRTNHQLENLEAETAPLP
UniProt P41143, whole entry, looked up: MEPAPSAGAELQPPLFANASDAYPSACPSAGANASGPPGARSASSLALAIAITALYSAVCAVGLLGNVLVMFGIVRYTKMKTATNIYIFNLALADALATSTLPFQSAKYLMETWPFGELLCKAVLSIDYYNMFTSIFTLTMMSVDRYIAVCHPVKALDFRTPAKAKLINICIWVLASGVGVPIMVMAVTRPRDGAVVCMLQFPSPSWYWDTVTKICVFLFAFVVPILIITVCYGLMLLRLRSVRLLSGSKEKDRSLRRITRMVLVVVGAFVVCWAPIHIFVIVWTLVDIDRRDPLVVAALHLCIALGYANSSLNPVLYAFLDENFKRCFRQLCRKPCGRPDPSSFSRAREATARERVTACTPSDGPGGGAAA

As usually defined, the Ki is a measure of affinity in units of concentration, obtained from inhibition or displacement.

In experiment [1] the target is Kappa-type opioid receptor (Homo sapiens, UniProt P41145). Kind of experiment: Inhibitory activity against Opioid receptor kappa 1 in chinese Hamster Ovary (CHO) cell membranes was determined using [3H]U-69593 radioligand.
The target in experiment [2] is Mu-type opioid receptor (Homo sapiens, UniProt P35372). Kind of experiment: Inhibitory activity against Opioid receptor mu 1 in chinese Hamster Ovary (CHO) cells membranes was determined using [3H]-DAMGO radioligand.
Experiment [3] deals with Delta-type opioid receptor (Homo sapiens, UniProt P41143). Kind of experiment: Inhibitory activity against Opioid receptor delta 1 in chinese Hamster Ovary (CHO) cell membranes was determined using [3H]naltrindole radioligand.

As for `CN(C(=O)Cc1cccc2occc12)[C@H]1CC[C@@]2(CCCO2)C[C@@H]1N1CCCC1`, the Ki in experiment [1] was 0.27 nM; in experiment [2] it was 22 nM; in experiment [3] it was greater than 1000 nM.

The values are drawn from ChEMBL document CHEMBL1145905, “Design and synthesis of novel dimeric morphinan ligands for kappa and micro opioid receptors” (J Med Chem, 2003).
